This note sets out measurements from US7398161B2, “Sampling method and sampling device, and logD measuring method and logD measuring system” (Banyu Pharmaceutical Co., Ltd., priority 2004, dated 2008).

The series in a line: logD measurement by sampling of octanol/buffer two-layer sample with plug liquid, HPLC and mass spectrometer. The note with it: octanol/buffer solution; average of three measurements (only one measurement for amiodarone).

With Imipramine, the “logD, Measured value” is 2.7.
